According to publication PMC10775418 (Cell reports, 2023):

Target: Whole ZIKV virions (Paraiba_01 strain) (Zika virus (strain Paraiba_01))
Test: ELISA

B1: Human recombinant EDE1-C8 (antibody, V domains shown)
VH: EVQLVESGGGLVQPGGSLRLSCSASGFTFSTYSMHWVRQAPGKGLEYVSAITGEGDSAFYADSVKGRFTISRDNSKNTLYFEMNSLRPEDTAVYYCVGGYSNFYYYYTMDVWGQGTTVTVSS
VL: EIVLTQSPATLSLSPGERATLSCRASQSISTFLAWYQHKPGQAPRLLIYDASTRATGVPARFSGSRSGTDFTLTISTLEPEDFAVYYCQQRYNWPPYTFGQGTKVEIK
B1: binds.
